According to patent US20100261219A1, “TEST METHOD OF BIOAVAILABILITY AND BIOEQUIVALENCE FOR XENOBIOTICS USING GENETIC PROFILING” (priority 2008, published 2010):
Where two headings read alike, the source gives them in different places.

[1] = all participants without classification of genotypes
[2] = participants having wild type CYP2D6 only

## Cc1nc2n(c(=O)c1CCN1CCC(c3noc4cc(F)ccc34)CC1)CCCC2 [risperidone, Risperidone]
[1]
  CVb of AUC values: 22.2%
  CVb of Cmax values: 20.8%
[2]
  CVb of AUC values: 15%
  CVb of Cmax values: 13.6%
